Consider one compound from paper PMC5679667, “Imaging extracellular ATP with a genetically-encoded, ratiometric fluorescent sensor” (PLoS ONE, 2017).

Sequences of proteins named here, by UniProt entry; tags and fusion partners are left off. A change or cut given only in a name is not applied to a line headed by its entry.
UniProt P07678: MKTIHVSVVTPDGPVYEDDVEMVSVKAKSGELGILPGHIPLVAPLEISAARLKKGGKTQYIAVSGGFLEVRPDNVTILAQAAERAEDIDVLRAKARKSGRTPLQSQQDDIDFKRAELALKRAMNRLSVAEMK

The experiment addresses T1, ecAT3.10 (extracellular ATeam3.10) (Bacillus sp. PS3, UniProt P07678).
T1 construct: gene atpC; ATeam3.10 (epsilon subunit between CFP and YFP) with N-terminal IgK leader and C-terminal PDGFR transmembrane anchor; on surface of Neuro2A cells
The experiment is described as follows: live-cell FRET/CFP ratio imaging, Hill fit. Format: cell-based. Conditions: read-out: Kapp.

Regarding `Nc1ncnc2c1ncn2[C@@H]1O[C@H](COP(=O)(O)OP(=O)(O)OP(=O)(O)O)[C@@H](O)[C@H]1O` [ATP], the Kd is 12 ± 5 µM.
